In this experiment the test system is MAP4K2 (germinal center kinase) (Homo sapiens). The experiment in a line: Inhibition of human GCK in HL-60 cells lysate assessed as reduction of labeling of acyl-phosphate ATP probe at 100 nM.

A value given as a limit tells only on which side of the number the result lay.

Take `C[C@H]1COc2c(NCCCc3ccccn3)c(F)c(N)c3c(=O)c(C#N)cn1c23`: the inhibition was under 35%.
With `C[C@H]1COc2c(NCCCn3cccn3)c(F)c(N)c3c(=O)c(C(=O)O)cn1c23`, the inhibition is under 35%.

The values are drawn from ChEMBL document CHEMBL1938230, “6-Position optimization of tricyclic 4-quinolone-based inhibitors of glycogen synthase kinase-3β: discovery of nitrile derivatives with picomolar potency” (Bioorg Med Chem Lett, 2012).
